Assay results as given in ChEMBL document CHEMBL1138969, “Carbonic anhydrase activators: activation of isozyme XIII with amino acids and amines” (Bioorg Med Chem Lett, 2006).

The chains behind the UniProt entries cited, without tags or fusion partners. Where a name states a change or a piece, a line headed by the entry shows the natural chain unless it says otherwise.
UniProt Q9D6N1: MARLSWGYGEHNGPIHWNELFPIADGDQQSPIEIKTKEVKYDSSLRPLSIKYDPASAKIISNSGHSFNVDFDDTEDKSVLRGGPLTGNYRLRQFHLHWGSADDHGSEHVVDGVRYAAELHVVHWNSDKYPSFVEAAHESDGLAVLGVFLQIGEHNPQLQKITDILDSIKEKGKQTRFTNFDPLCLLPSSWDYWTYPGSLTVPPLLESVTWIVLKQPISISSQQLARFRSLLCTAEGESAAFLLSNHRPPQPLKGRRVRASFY
UniProt P00915: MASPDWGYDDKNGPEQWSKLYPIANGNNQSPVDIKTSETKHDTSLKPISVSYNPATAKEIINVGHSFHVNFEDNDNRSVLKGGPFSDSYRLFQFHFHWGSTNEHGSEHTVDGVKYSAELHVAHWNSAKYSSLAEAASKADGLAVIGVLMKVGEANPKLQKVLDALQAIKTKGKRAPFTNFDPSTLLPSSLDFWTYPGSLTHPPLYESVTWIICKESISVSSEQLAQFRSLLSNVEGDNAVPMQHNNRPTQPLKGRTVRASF

Experiments:
[1] = target: Carbonic anhydrase 13 (Mus musculus) (UniProt Q9D6N1); experiment: Activation of mouse recombinant CA13 by CO2 hydrase method
[2] = target: Carbonic anhydrase 1 (Homo sapiens) (UniProt P00915); experiment: Activation of human recombinant CA1 by CO2 hydrase assay
[3] = target: Carbonic anhydrase 2 (Homo sapiens) (UniProt P00918); experiment: Activation of human recombinant CA2 by CO2 hydrase assay

Compound	KA [1]	KA [2]	KA [3]
N[C@H](Cc1ccccc1)C(=O)O	0.051 µM	86 µM	0.035 µM
N[C@@H](Cc1ccccc1)C(=O)O	1.02 µM	0.07 µM	0.013 µM
